Drawing on patent EP2883881A1, “Cobaltcomplex salts and mixtures of Cobaltcomplex salts for use in DSSC” (dated 2015), this text covers Solubility for 3 substances.

A short description of this data set: Solubility of the Cobaltcomplex salt in the solvent of the electrolyte formulation.
The mark [1] stands for this setting: solvent gamma-butyrolactone, Table 3.

Regarding “[Co(3,3'-dimethoxy-2,2'-bipy)3][N(FSO2)2]2”, the Solubility result under setting [1] is reported as “good”. On to “[Co(3,3'-dimethoxy-2,2'-bipy)bipy2][N(FSO2)2]2”, for which the Solubility result under setting [1] was “good”. Regarding “[Co(3,6'-dimethoxy-2,2'-bipy)3][N(FSO2)2]2”, for the setting “solvent 3-methoxypropionitrile, Table 1, without CDCA”, the Solubility result is “good”.
